Measured values reported in ChEMBL document CHEMBL2321866 (J Med Chem, 2013).

Protein sequences, listed by entry. Tags and fused reporters are not part of them.
UniProt P34972, whole entry: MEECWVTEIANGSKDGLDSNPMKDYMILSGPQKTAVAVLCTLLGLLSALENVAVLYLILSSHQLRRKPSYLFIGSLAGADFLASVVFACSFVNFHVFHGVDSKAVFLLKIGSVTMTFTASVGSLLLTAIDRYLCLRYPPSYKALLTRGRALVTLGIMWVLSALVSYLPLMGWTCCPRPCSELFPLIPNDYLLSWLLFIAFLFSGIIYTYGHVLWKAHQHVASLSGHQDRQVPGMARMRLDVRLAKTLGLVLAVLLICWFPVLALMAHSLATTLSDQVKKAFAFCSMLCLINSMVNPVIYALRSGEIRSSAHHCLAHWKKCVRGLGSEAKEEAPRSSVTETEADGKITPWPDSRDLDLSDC

Columns and labels:
Homo sapiens = species on record: Homo sapiens; assay: Selectivity index, ratio of Ki for CB1 receptor (unknown origin) to Ki for CB2 receptor (unknown origin)
Cannabinoid receptor 2 = Cannabinoid receptor 2 (Homo sapiens, UniProt P34972); assay: Displacement of [3H]CP-55,940 from CB2 receptor (unknown origin) after 1 hr by scintillation counting analysis

Ratio Ki (Homo sapiens) | Ki (Cannabinoid receptor 2; read-out: Ki) [nM] | Compound | other results
309 | – | CCN(CC)c1ccc(CN(c2ccc(Cl)cc2)S(=O)(=O)c2cccc(C)c2)cc1 | –
– | 2740 | CCCCCCCN(Cc1ccc(N(CC)CC)cc1)S(=O)(=O)c1ccc(C)cc1 | –
– | 47 | CCN(CC)c1ccc(CN([C@]23C[C@H]4C[C@H](C[C@H](C4)C2)C3)S(=O)(=O)c2ccc(C)cc2)cc1 | –
137 | – | CCN(CC)c1ccc(CN(c2ccc(C)cc2)S(=O)(=O)c2ccc(Cl)cc2)cc1 | –
– | – | CCN(CC)c1ccc(CN(c2ccc(Cl)cc2)S(=O)(=O)c2ccccc2)cc1 | Ki (Cannabinoid receptor 2; read-out: pKi (converted)): 12.6 nM
